Results from patent US12286443B2, “Bycyclic JAK inhibitors and uses thereof” (Insilico Medicine IP Limited, priority 2019, dated 2025).

The chains behind the UniProt entries cited, without tags or fusion partners.
UniProt P23458, whole entry: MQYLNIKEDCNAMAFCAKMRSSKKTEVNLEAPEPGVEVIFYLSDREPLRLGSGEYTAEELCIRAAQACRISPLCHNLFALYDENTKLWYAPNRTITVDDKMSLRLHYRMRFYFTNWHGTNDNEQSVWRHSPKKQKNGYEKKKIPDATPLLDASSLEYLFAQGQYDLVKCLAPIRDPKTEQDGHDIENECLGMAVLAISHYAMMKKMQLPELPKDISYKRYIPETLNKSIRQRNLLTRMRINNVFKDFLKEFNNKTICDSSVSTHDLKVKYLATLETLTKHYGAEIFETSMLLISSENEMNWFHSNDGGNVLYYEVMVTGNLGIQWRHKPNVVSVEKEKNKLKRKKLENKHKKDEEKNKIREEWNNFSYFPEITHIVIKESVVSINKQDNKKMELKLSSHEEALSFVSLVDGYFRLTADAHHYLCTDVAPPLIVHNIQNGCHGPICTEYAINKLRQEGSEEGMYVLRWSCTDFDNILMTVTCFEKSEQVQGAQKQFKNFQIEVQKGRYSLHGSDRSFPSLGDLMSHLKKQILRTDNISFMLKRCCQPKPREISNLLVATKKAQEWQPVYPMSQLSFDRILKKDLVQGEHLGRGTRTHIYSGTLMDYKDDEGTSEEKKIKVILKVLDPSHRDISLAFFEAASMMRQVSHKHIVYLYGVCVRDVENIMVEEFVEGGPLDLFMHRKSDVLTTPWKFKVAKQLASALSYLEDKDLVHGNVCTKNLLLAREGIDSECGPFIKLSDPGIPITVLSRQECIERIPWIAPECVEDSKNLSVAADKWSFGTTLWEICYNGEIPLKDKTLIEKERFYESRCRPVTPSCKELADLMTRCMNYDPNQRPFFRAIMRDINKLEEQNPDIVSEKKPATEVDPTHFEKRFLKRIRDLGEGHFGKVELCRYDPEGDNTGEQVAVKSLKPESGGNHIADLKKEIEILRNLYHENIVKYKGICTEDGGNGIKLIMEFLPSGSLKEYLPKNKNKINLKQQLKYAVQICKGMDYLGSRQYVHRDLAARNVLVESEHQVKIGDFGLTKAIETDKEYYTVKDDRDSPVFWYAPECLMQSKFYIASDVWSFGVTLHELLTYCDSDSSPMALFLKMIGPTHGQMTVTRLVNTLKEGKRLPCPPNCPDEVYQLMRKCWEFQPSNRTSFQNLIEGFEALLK
UniProt P52333, whole entry: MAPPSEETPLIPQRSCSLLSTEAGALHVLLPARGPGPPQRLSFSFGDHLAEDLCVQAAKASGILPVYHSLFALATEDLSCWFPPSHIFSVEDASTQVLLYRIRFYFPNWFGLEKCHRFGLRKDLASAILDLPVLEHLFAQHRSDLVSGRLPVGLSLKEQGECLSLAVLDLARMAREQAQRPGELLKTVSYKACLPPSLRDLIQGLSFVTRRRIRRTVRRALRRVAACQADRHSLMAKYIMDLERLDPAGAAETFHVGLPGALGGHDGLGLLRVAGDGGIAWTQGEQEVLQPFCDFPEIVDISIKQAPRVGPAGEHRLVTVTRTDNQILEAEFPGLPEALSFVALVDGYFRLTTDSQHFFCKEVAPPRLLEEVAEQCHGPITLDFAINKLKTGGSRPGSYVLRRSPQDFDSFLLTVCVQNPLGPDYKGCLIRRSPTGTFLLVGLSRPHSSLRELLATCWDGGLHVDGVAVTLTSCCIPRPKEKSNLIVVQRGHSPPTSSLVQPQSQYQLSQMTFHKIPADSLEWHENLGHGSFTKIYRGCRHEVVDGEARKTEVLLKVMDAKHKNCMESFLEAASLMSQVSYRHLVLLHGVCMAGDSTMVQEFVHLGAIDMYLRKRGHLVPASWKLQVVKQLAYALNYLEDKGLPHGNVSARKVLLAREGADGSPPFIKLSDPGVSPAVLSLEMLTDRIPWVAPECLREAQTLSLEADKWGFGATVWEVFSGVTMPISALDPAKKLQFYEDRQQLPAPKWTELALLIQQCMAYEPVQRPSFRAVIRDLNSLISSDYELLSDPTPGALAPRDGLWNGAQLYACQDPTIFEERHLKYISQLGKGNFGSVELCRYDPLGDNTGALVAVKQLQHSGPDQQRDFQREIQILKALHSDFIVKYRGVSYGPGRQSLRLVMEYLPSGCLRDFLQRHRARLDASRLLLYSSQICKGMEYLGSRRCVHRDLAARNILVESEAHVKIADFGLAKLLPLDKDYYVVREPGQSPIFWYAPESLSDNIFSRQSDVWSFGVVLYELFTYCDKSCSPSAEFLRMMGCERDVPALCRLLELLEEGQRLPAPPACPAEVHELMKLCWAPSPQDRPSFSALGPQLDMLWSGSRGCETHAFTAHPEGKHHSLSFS
UniProt P29597, whole entry: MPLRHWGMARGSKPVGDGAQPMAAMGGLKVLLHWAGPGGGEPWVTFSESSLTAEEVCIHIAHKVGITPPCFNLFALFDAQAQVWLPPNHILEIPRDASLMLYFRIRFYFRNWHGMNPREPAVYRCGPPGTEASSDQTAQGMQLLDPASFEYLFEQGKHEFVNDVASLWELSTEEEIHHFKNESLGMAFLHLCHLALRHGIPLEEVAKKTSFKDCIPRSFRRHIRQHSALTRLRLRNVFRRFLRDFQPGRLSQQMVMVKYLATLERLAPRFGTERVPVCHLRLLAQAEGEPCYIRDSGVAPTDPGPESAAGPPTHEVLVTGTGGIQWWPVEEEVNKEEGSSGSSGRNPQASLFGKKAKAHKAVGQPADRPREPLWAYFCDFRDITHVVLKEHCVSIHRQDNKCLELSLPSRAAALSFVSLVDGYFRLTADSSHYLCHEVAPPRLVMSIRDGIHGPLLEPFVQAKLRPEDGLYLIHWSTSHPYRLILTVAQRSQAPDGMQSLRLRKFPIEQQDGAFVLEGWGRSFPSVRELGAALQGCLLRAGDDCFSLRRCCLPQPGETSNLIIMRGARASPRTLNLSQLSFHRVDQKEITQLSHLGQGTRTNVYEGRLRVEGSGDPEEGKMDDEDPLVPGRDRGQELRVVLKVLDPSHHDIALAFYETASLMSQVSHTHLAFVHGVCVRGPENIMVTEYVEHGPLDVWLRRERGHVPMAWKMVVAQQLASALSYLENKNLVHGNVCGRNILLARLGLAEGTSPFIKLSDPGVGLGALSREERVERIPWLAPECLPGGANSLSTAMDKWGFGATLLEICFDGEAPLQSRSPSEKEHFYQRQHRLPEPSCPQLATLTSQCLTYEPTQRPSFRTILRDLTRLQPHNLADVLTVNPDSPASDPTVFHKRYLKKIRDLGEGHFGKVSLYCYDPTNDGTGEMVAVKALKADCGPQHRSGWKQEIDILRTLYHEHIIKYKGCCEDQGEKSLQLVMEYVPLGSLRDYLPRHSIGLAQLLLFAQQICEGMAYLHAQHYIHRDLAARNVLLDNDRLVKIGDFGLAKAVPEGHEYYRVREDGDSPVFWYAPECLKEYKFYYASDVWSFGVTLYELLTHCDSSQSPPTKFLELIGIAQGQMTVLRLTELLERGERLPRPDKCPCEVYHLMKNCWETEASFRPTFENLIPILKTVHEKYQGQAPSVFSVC
UniProt O60674, whole entry: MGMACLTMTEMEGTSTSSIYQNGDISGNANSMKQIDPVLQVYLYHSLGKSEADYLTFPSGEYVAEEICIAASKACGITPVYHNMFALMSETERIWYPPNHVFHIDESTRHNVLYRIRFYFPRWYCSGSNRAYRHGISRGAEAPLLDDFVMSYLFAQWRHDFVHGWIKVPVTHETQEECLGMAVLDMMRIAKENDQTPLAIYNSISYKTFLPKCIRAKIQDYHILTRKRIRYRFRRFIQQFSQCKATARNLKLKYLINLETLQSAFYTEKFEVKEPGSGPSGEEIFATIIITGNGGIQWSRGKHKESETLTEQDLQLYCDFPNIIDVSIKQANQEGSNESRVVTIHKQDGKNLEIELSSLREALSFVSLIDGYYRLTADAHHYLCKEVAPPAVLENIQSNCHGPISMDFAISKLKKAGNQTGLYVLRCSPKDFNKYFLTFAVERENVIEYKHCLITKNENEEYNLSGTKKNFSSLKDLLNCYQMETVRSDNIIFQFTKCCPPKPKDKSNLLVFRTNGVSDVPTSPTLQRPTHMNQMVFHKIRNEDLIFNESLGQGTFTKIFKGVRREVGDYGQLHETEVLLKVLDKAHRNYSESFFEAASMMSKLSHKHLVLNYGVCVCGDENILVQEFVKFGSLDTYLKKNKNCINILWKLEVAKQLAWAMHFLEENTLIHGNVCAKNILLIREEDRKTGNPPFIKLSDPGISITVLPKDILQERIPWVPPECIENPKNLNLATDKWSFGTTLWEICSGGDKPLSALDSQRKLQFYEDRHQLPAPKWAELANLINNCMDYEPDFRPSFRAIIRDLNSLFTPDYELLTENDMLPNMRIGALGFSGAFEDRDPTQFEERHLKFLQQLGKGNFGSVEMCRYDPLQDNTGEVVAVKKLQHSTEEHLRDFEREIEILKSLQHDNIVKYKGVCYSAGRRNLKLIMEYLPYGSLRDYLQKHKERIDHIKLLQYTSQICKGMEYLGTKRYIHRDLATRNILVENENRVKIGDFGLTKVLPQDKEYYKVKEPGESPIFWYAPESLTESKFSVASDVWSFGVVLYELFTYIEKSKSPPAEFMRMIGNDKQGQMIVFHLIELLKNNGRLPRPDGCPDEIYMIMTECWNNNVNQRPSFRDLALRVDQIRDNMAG

How the values were obtained:
JAK1 = JAK1 (Homo sapiens, UniProt P23458); assay: Inhibition of JAK1 kinase, LANCE Ultra TR-FRET assay; settings: read-out: Jak1 IC50, 2 nM JAK1, 2x ATP 76 μM, 15 min pre-incubation, 90 min reaction, 23° C.
Procedure: (§1) Exemplary compounds were assayed to determine potency in inhibiting activity of JAK1-3 and TYK2 kinases by determining IC50 values.
(§2) The sources of test materials and equipment are as follows: JAK1 (Invitrogen, Cat. No PV4775), JAK2 (Invitrogen, Cat. No PV4210), JAK3 (Invitrogen, Cat. No PV4080), TYK2 (Invitrogen, Cat. No PR8440C), ATP (Sigma, Cat. No. A7699-1G), DMSO (Sigma, Cat. No. D2650), DTT (Sigma, Cat. No. 43815), 384 wells_compound plate (Greiner, Cat. No. 781280), 384 wells_assay plate (Perkin Elmer, Cat. No. 6007299), LANCE Ultra ULight™-JAK-1 peptide (Perkin Elmer, Cat. No. TRF0121), LANCET™ Eu-W1024 Anti-phosphotyrosine (PT66) (Perkin Elmer, Cat. No. AD0069), LANCET™ Detection Buffer(Perkin Elmer, Cat. No. CR97-100).
(§3) The concentrations of test compounds varied from 100 μM to 1.7 nM with 3-fold dilution, 11 points, in duplicates while the concentrations of the reference compound, Tofacitinib, varied from 1 μM to 0.017 nM with 3-fold dilution, 11 points, in duplicates. […]
(§4) Prior to the assay, enzyme, peptide substrate and serially diluted test compounds were pre-incubated together in assay buffer (5 μL) for 15 minutes (peptide substrate concentration: 50 nM; JAK enzyme concentrations: 2 nM JAK1; […]; 80 μM JAK3 and 4 nM TYK2). […] The plate is analyzed by Perkin Elmer Envision on TR-FRET mode. […]

JAK3 = JAK3 (Homo sapiens, UniProt P52333); assay: Inhibition of JAK3 kinase, LANCE Ultra TR-FRET assay; settings: read-out: Jak3 IC50, 2x ATP 8 μM, 15 min pre-incubation, 90 min reaction, 23° C.
Procedure: as §1, §2, §3, §4

TYK2 = TYK2 (Homo sapiens, UniProt P29597); assay: Inhibition of TYK2 kinase, LANCE Ultra TR-FRET assay; settings: read-out: tyk IC50, 4 nM TYK2, 2x ATP 30 μM, 15 min pre-incubation, 90 min reaction, 23° C.
Procedure: as §1, §2, §3, §4

JAK2 = JAK2 (Homo sapiens, UniProt O60674); assay: Inhibition of JAK2 kinase, LANCE Ultra TR-FRET assay; settings: read-out: Jak2 IC50, 2x ATP 24 μM, 15 min pre-incubation, 90 min reaction, 23° C.
Procedure: as §1, §2, §3, §4

IC50 (JAK1): 500 to 2000 nM
IC50 (JAK3): 100 to 500 nM
IC50 (TYK2): > 2000 nM
IC50 (JAK2): 500 to 2000 nM
SMILES: O=C(NCc1ncco1)c1noc2c1CN(c1ncnc3[nH]ccc13)CC2
